Patent US20090137681A1 (published 2009)

Protein sequences, listed by entry. Tags and fused reporters are not part of them. Lines headed by an entry give the natural chain unless they say otherwise; changes in a name come on top.
UniProt P06700: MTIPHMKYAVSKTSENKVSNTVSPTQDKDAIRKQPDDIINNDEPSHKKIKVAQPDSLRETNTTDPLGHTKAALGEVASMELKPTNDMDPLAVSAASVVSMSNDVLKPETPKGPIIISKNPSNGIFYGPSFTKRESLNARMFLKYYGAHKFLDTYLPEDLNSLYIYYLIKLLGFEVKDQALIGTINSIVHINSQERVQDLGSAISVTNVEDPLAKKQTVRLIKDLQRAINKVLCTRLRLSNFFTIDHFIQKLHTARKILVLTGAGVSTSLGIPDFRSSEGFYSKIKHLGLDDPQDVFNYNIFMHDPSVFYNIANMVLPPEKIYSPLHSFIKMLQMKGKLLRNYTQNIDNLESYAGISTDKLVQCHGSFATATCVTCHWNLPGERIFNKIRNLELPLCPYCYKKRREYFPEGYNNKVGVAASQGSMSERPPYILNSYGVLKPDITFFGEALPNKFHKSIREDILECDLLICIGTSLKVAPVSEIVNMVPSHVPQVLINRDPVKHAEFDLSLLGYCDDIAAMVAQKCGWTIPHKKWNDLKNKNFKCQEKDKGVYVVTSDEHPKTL

Target: yeast Sir2 (ySir2) (Saccharomyces cerevisiae, UniProt P06700)
Assay: Yeast Sir2 deacetylase inhibition, HDAC fluorescent activity assay (BIOMOL AK-500)

IC50: 48 µM
Structure (SMILES): CC(NC(=O)c1ccccc1/N=C/c1c(O)ccc2ccccc12)c1ccccc1 (racemic) [Compound 1, sirtinol, reference compound]
